# Antibody variant affinities, Ab-14 heavy chain, assay 1

Antigen: PDVDLGDISGINAS, a 14-residue peptide of the SARS-CoV-2 spike HR2 region.

Ab-14 is the parent antibody, in scFv form: VH, then the linker GGGGSGGGGSGGGGS, then VL. The light chain is unchanged in all variants.
VH: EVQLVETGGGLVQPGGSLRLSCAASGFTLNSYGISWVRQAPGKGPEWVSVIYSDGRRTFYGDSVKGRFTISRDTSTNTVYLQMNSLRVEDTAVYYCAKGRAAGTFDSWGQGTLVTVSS
VL: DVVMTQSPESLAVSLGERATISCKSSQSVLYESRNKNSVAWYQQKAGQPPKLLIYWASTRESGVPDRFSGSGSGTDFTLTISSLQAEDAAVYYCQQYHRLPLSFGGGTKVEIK

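The starting antibody came from a phage panning campaign against this peptide. Variants in AAYL49 differ from the parent at up to three CDR positions; double and triple changes were sampled at random. In AlphaSeq, yeast of one mating type display the scFv and yeast of the other type display the target. Pairs that bind mate more often; barcode pairs of the diploids are counted by sequencing. A regression on co-assayed BCL2-family reference pairs converts the normalised counts of each replicate to an apparent Kd. The assay was run in three technical replicates.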

Each variant is given by its three heavy chain CDRs, as the data file delimits them; those of the parent are GFTLNSYGIS, VIYSDGRRTFYGDSVK, GRAAGTFDS.
Every variant below is changed at S107 of the VH (sequential numbering).
The Kd shown is the geometric mean over detected replicates; a lower Kd is a better binder.
"nd" means that the variant was in the library but no mating with the target was seen in any replicate; the authors take this as a sign of poor binding, and no number exists.
As a blank, each scFv also met three strains without target: over library AAYL49, 15% of these pairings were detected, typically at 11 µM and seldom below 680 nM. For each scFv, signals with the empty controls are counted beside the result.

With GFTLNTYGIS | VIYSDGRRTFYWDSVK | GRAAGTFDE the result was 170 nM (3 of 3 replicates; controls 2 of 9).
With GFTLVSYGIS | VIYSDGRRTFYVDSVK | GRAAGTFDI the result was 470 nM (3 of 3 replicates; controls 2 of 9).
With GFTLNSYGIS | VIYSDGRRTFYGDSVC | GRAAGTFDL the result was 95 nM (3 of 3 replicates; controls 0 of 9).
With GFTLNSYGIS | VIPPDGRRTFYGDSVK | GRAAGTFDT the result was 1.4 mM (2 of 3 replicates; controls 3 of 9).
With GFTLNSYGIS | VIYSDGRRTFYGDSVK | GGAAGTFDI the result was 200 nM (3 of 3 replicates; controls 1 of 9).
With GFTLNSYGIS | VIYSDGRRTFYGDSVK | GWAAGLFDR the result was nd (0 of 3 replicates; controls 1 of 9).
With YFTLNSYGIS | VIYSDGRRTFYGDSRK | GRAAGTFDG the result was nd (0 of 3 replicates; controls 0 of 9).
With GFTLNSRGIS | VIYSDGRRTFYGDSVK | GRAANTFDL the result was 790 nM (1 of 3 replicates; controls 1 of 9).
With GFTLNSYGIS | VIYSDGRRTKSGDSVK | GRAAGTFDW the result was nd (0 of 3 replicates; controls 0 of 9).
With YFTLNSYGIS | VIYSDGRRTFYGDSVK | GRAAGTFDD the result was 2.9 µM (1 of 3 replicates; controls 0 of 9).
With GFTMNSYGIS | VIYSDGRRTFYGDSVK | GAAAGTFDT the result was 3.0 µM (3 of 3 replicates; controls 0 of 9).
With GFTLNSYGIS | VIYSDGRRTFYGESVK | GRAAGTFLD the result was 20 nM (3 of 3 replicates; controls 0 of 9).
With GFTLNSYGIS | VIMSDGRRTFYGDSVK | GRSAGTFDK the result was nd (0 of 3 replicates; controls 1 of 9).
With GFTLNSYGYS | VIYSDGRRTFYGDSVK | GFAAGTFDT the result was 9.6 µM (1 of 3 replicates; controls 1 of 9).
With GFTLNSYGIS | VIYSDGRLTFYGDSVK | GRAAGTFDM the result was nd (0 of 3 replicates; controls 0 of 9).
With GFTLNSYGIS | VLYSDGRRTFYGDCVK | GRAAGTFDP the result was 1.1 µM (1 of 3 replicates; controls 0 of 9).
With GFLLNSYGGS | VIYSDGRRTFYGDSVK | GRAAGTFDN the result was nd (0 of 3 replicates; controls 0 of 9).
With PFTLNMYGIS | VIYSDGRRTFYGDSVK | GRAAGTFDQ the result was 110 nM (3 of 3 replicates; controls 0 of 9).
With GFTLNVYGIS | VIYSGGRRTFYGDSVK | GRAAGTFDP the result was nd (0 of 3 replicates; controls 0 of 9).
With GFTLNSYGIS | VIYSDGRRTFYGDSAK | GRAAFTFDY the result was 640 nM (1 of 3 replicates; controls 0 of 9).
With GFTLNSYGIS | VIYSDGRRTFYDDSVK | GRAAGEFDH the result was 84 µM (3 of 3 replicates; controls 4 of 9).
With GFTLNSYEIS | VIYSDGRRTFEGDSVK | GRAAGTFDW the result was nd (0 of 3 replicates; controls 0 of 9).
With GQTLNSYGIS | VIYSDGRRTFYGDSVK | GRAAGNFDV the result was 14 nM (3 of 3 replicates; controls 1 of 9).
With GFTLNSYGIS | VIYSDGRRTFYGDSVK | GRAAGTFDE the result was nd (0 of 3 replicates; controls 0 of 9).
With GFTINSYGIS | VIYSDGRRTFYGDSVK | GRAAGTFTG the result was nd (0 of 3 replicates; controls 0 of 9).
With GFGLNSYGIS | VIYSDGNRTFYGDSVK | GRAAGTFDD the result was 250 nM (3 of 3 replicates; controls 0 of 9).
With GFTLNSYGIS | VIYSDGRRTFTGDSVK | GRAAGTFDH the result was nd (0 of 3 replicates; controls 4 of 9).
With GFTLNSYGTS | VIYSDGRRTFYGTSVK | GRAAGTFDL the result was 2.2 µM (1 of 3 replicates; controls 0 of 9).
With GFNLNSYGIS | VIYSDLRRTFYGDSVK | GRAAGTFDH the result was 57 µM (3 of 3 replicates; controls 5 of 9).
With GFTLNSYGIS | VIYSDGRRTFYGDTVK | GRAAGTIDP the result was 8.0 µM (2 of 3 replicates; controls 2 of 9).
With GFTLNSYGIS | VIYSDGWRTFYGDSVK | GIAAGTFDW the result was 240 nM (3 of 3 replicates; controls 4 of 9).
With GSTLNSYGIS | VIYSDGRRTFYGDSKK | GRAAGTFDF the result was 1.6 µM (1 of 3 replicates; controls 1 of 9).
With GFTLNSYGIT | VIYSDGQRTFYGDSVK | GRAAGTFDE the result was nd (0 of 3 replicates; controls 1 of 9).
With GFTLNSVGIS | VIYSDGRRTFYGDSVK | GRAAGLFDQ the result was 190 nM (3 of 3 replicates; controls 0 of 9).
With GFTLNSYGIS | VIYSEGRHTFYGDSVK | GRAAGTFDN the result was 1.5 µM (1 of 3 replicates; controls 0 of 9).
With GFTLISYGIS | VIYSDGRRWFYGDSVK | GRAAGTFDF the result was nd (0 of 3 replicates; controls 2 of 9).
With GFTLNSIGIS | VIYSDGRRTSYGDSVK | GRAAGTFDW the result was nd (0 of 3 replicates; controls 2 of 9).
With GFTNNSYGIS | VIYSDGRRTFYGDSVK | GVAAGTFDT the result was nd (0 of 3 replicates; controls 2 of 9).
With GFTLNSYGIS | VIYSDGRRTFYGDSVK | GRAAGTFDQ the result was 9.5 nM (3 of 3 replicates; controls 0 of 9).
With GFTLNSYGIY | VIYSDGRRTFYPDSVK | GRAAGTFDF the result was 160 µM (1 of 3 replicates; controls 4 of 9).
With GFTLNSYDIS | VIYEDGRRTFYGDSVK | GRAAGTFDY the result was nd (0 of 3 replicates; controls 3 of 9).
With GFTLNLYGIS | VIYSDGRDTFYGDSVK | GRAAGTFDA the result was nd (0 of 3 replicates; controls 0 of 9).

The closing 2 entries, repeated:

For GFTLNSYDIS | VIYEDGRRTFYGDSVK | GRAAGTFDY, the assay gave nd (0 of 3 replicates; controls 3 of 9).
For GFTLNLYGIS | VIYSDGRDTFYGDSVK | GRAAGTFDA, the assay gave nd (0 of 3 replicates; controls 0 of 9).

Data: MIT Lincoln Laboratory AlphaSeq set, Engelhart et al. 2022, doi:10.1038/s41597-022-01779-4, as distributed in FLAb.